Measured values reported in PubChem BioAssay (NCI).
Only a part is listed here, and it is no random draw. Some salts or complexes appear as unconnected parts, following the source record. Where a structure was tested more than once in an assay, its records may differ in their call. The source made the active and inactive calls. Cut-off read from the data, not from the text of the source: active = growth inhibition above about 70%; inactive = the rest.

Experiment: NCI Yeast Anticancer Drug Screen. Data for the CLN2oe strain (AID 163);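 note: 0% = growth of vehicle-only control cultures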
Conditions: S. cerevisiae CLN2oe strain, stronger effect = higher value
Description: Growth inhibition of yeast strains with defined genetic alterations is measured as a screen for potential anti-cancer activity. Selected strains with alterations in DNA damage repair or cell cycle control were exposed to compounds and growth inhibition was measured relative to vehicle treated controls. The strain used in this assay is CLN2oe

**Q.** Which growth inhibition (at 1.2 µM) does the source give for `Cc1ccc2ccc3ccc4ccccc4c3c2c1.O=C1c2cc([N+](=O)[O-])ccc2-c2c1cc([N+](=O)[O-])cc2[N+](=O)[O-]` here?
**A.** inactive: -3%

**Q.** What about the growth inhibition (at 3.7 µM) of the same molecule?
**A.** inactive: -1%

**Q.** What about the growth inhibition (at 11.0 µM) of the same molecule?
**A.** inactive: -3%

**Q.** And the growth inhibition (at 33.0 µM)?
**A.** inactive: 5%

**Q.** And the growth inhibition (at 100.0 µM)?
**A.** inactive: 1%

**Q.** With `Nc1ccccc1.O=[N+]([O-])c1cc([N+](=O)[O-])cc([N+](=O)[O-])c1` as the molecule, how does the growth inhibition (at 1.2 µM) read?
**A.** inactive: -1%

**Q.** What about the growth inhibition (at 3.7 µM) of the same molecule?
**A.** inactive: -1%

**Q.** And the growth inhibition (at 11.0 µM)?
**A.** inactive: 14%

**Q.** And the growth inhibition (at 33.0 µM)?
**A.** active: 99%

**Q.** And the growth inhibition (at 100.0 µM)?
**A.** active: 99%

**Q.** For `[Au].[C-]#N.[C-]#N`, which growth inhibition (at 1.2 µM) is on record?
**A.** inactive: -14%

**Q.** And the growth inhibition (at 3.7 µM)?
**A.** inactive: -13%

**Q.** What about the growth inhibition (at 11.0 µM) of the same molecule?
**A.** inactive: -18%

**Q.** What about the growth inhibition (at 33.0 µM) of the same molecule?
**A.** inactive: 8%

**Q.** And the growth inhibition (at 100.0 µM)?
**A.** inactive: 24%

**Q.** Which growth inhibition (at 1.2 µM) does the source give for `Cc1c2ccccc2cc2ccccc12.O=[N+]([O-])c1cc([N+](=O)[O-])c(O)c([N+](=O)[O-])c1` here?
**A.** inactive: -4%

**Q.** What about the growth inhibition (at 3.7 µM) of the same molecule?
**A.** inactive: -2%

**Q.** What about the growth inhibition (at 11.0 µM) of the same molecule?
**A.** inactive: 6%

**Q.** What about the growth inhibition (at 33.0 µM) of the same molecule?
**A.** inactive: 10%

**Q.** And the growth inhibition (at 100.0 µM)?
**A.** active: 86%

**Q.** With `Cc1cc2ccccc2cc1C.O=[N+]([O-])c1cc([N+](=O)[O-])cc([N+](=O)[O-])c1` as the molecule, how does the growth inhibition (at 1.2 µM) read?
**A.** inactive: -3%

**Q.** What about the growth inhibition (at 3.7 µM) of the same molecule?
**A.** inactive: -12%

**Q.** What about the growth inhibition (at 11.0 µM) of the same molecule?
**A.** inactive: -1%

**Q.** What about the growth inhibition (at 33.0 µM) of the same molecule?
**A.** inactive: 10%

**Q.** What about the growth inhibition (at 100.0 µM) of the same molecule?
**A.** inactive: 61%

**Q.** For `[Au+].[N-]=[N+]=N.c1ccc([PH+](c2ccccc2)c2ccccc2)cc1`, which growth inhibition (at 1.2 µM) is on record?
**A.** inactive: -1%

**Q.** And the growth inhibition (at 3.7 µM)?
**A.** active: 90%

**Q.** And the growth inhibition (at 33.0 µM)?
**A.** active: 95%

**Q.** And the growth inhibition (at 100.0 µM)?
**A.** active: 90%

**Q.** With `[Au+].[Au+].c1ccc([PH+](c2ccccc2)c2ccccc2)cc1.c1ccc([PH+](c2ccccc2)c2ccccc2)cc1.n1n[n-]c(-c2nnn[n-]2)n1` as the molecule, how does the growth inhibition (at 1.2 µM) read?
**A.** inactive: -8%

**Q.** What about the growth inhibition (at 3.7 µM) of the same molecule?
**A.** inactive: 15%

**Q.** And the growth inhibition (at 11.0 µM)?
**A.** active: 97%

**Q.** What about the growth inhibition (at 33.0 µM) of the same molecule?
**A.** active: 98%

**Q.** And the growth inhibition (at 100.0 µM)?
**A.** active: 98%

**Q.** Which results are given for `O=[N+]([O-])C(F)(COCC(O)CO)[N+](=O)[O-]` (centres undefined)?
**A.** growth inhibition (at 1.2 µM): inactive: 22%; growth inhibition (at 3.7 µM): inactive: 12%; growth inhibition (at 11.0 µM): inactive: 15%; growth inhibition (at 33.0 µM): inactive: 48%; growth inhibition (at 100.0 µM): active: 88%

**Q.** What does the source list for `COc1ccccc1N.O=[N+]([O-])c1cc([N+](=O)[O-])cc([N+](=O)[O-])c1`?
**A.** growth inhibition (at 1.2 µM): inactive: -3%; growth inhibition (at 3.7 µM): inactive: 2%; growth inhibition (at 11.0 µM): inactive: 18%; growth inhibition (at 33.0 µM): active: 99%; growth inhibition (at 100.0 µM): active: 99%
